Only a part is listed here, and it is no random draw. Activity calls are given as the source filed them.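 Rule for the calls: active = inhibition above the mean over all tested compounds plus 3 SD (cut at about 3.6% in these data); inactive = the rest.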
Assay: DAX1 (NR0B1) inhibitors on StAR promoter, primary screen, cell-based, luminescence, SF-1 (NR5A1), full-length DAX-1 (AID 652010);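 note: 0% = DAX-1 cells with DMSO and 100% = cells lacking DAX-1 with DMSO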
Conditions: HEK293T StAR-luciferase reporter, SF-1/DAX-1 repression relief; at 6.8 µM; stronger effect = higher value

| Compound | inhibition |
| --- | --- |
| CSc1ccccc1C(=O)NCC1(N2CCCCC2)CCCCC1 | inactive: -0.08% |
| Cc1cccc(NC2(C#N)CCN(Cc3ccccc3)CC2)c1 | inactive: 0.95% |
| COc1ccc(C(=O)NCC2(N3CCCCC3)CCCCC2)cc1 | inactive: 0.88% |
| CCC(c1nnnn1C1CCCC1)N1CCC(n2c(=O)[nH]c3ccccc32)CC1 (stereo not drawn) | inactive: -1.43% |
| CC(C)(C)OC(=O)N1CCC(N(C(=O)c2ccccc2)c2ccc(F)cc2)CC1 | inactive: -0.19% |
| COc1ccc(C(=O)NCC2(N3CCCCC3)CCCCC2)c(OC)c1OC | inactive: 1.06% |
| O=C(NCC1(N2CCCCC2)CCCCC1)c1ccc(=O)[nH]c1 | active: 6.38% |
| CCCCn1nnnc1C(c1cccs1)N1CCC(n2c(=O)[nH]c3ccccc32)CC1 (stereo not drawn) | inactive: -3.78% |
| O=C(NCC1(N2CCCCC2)CCCCC1)c1cccs1 | inactive: 2.9% |
| CCCCn1nnnc1C(CC)N1CCC(n2c(=O)[nH]c3ccccc32)CC1 (stereo not drawn) | inactive: -1.04% |
| O=c1[nH]c2ccccc2n1C1CCN(C(c2cc3ccccc3o2)c2nnnn2C2CCCCC2)CC1 (stereo not drawn) | inactive: 3.03% |
| O=C(OC1CN2CCC1CC2)C1c2ccccc2Oc2ccccc21 (stereo not drawn) | inactive: 0.1% |
| N#CC1(Nc2ccccc2)CCN(Cc2ccccc2)CC1 | inactive: -0.31% |
| O=C(NCC1(N2CCCCC2)CCCCC1)c1ccc(Cl)s1 | inactive: 1.37% |
| COc1ccc(Cl)cc1C(=O)NCC1(N2CCOCC2)CCCCC1 | inactive: -0.16% |
| CCOC(=O)N1CCC(Nc2ccc(OC)cc2)CC1 | inactive: 0.08% |
| CCCCn1nnnc1C(c1ccc(OC)cc1)N1CCC(n2c(=O)[nH]c3ccccc32)CC1 (stereo not drawn) | inactive: -1.19% |
| O=c1[nH]c2ccccc2n1C1CCN(C(c2ccccc2OC(F)(F)F)c2nnnn2C2CCCCC2)CC1 (stereo not drawn) | inactive: 0.71% |
| O=C(NCC1(N2CCCCC2)CCCCC1)c1ccc(Cl)nc1 | active: 6.16% |
| Cc1cc(C)cc(N(C(=O)c2ccccc2)C2CCN(C(=O)OC(C)(C)C)CC2)c1 | inactive: -0.55% |
| O=C(NCC1(N2CCOCC2)CCCCC1)c1cc2ccccc2o1 | inactive: 0.49% |
| COc1cc(OC)c(C(=O)NCC2(N(C)C)CCCCC2)cc1OC | inactive: 0% |
| CCC(c1nnnn1C(C)(C)C)N1CCC(n2c(=O)[nH]c3ccccc32)CC1 (stereo not drawn) | inactive: -1.96% |
| O=C(NCC1(N2CCOCC2)CCCCC1)c1cc(F)c(F)cc1Cl | inactive: -0.36% |

| Compound | inhibition |
| --- | --- |
| CCCCn1nnnc1C(c1ccnc2ccccc12)N1CCC(n2c(=O)[nH]c3ccccc32)CC1 (stereo not drawn) | inactive: -0.27% |
| CC(C)c1ccc(NC2CCN(C(=O)OC(C)(C)C)CC2)cc1 | inactive: 0.97% |
| COC(=O)C1(Nc2ccccc2)CCN(Cc2ccccc2)CC1 | inactive: -0.31% |
| COc1ccc(CN(CCCl)CCCl)cc1Cl | inactive: -0.38% |
| CN(C)c1cccc(C(=O)NCC2(N3CCCCC3)CCCCC2)c1 | inactive: 0.8% |
| COc1ccc(C(c2nnnn2C2CCCC2)N2CCC(n3c(=O)[nH]c4ccccc43)CC2)cc1 (stereo not drawn) | inactive: -0.12% |
| Cc1ccc(C(=O)NCC2(N(C)C)CCCCC2)o1 | inactive: 1.55% |
| CCCOc1ccc(C(=O)NCC2(N(C)C)CCCCC2)cc1OC | inactive: 0.05% |
| O=C(NCC1(N2CCCCC2)CCCCC1)c1cncc(Br)c1 | active: 4.3% |
| CN1CCC(Nc2cccc(F)c2)CC1 | inactive: 0.18% |
| CCN1CCC(Nc2ccc(Cl)cc2)CC1 | inactive: -0.53% |
| N#CC1(Nc2ccccc2)CCN(CCc2ccccc2)CC1 | inactive: -0.4% |
| O=c1[nH]c2ccccc2n1C1CCN(C(c2ccccc2OC(F)(F)F)c2nnnn2C2CCCC2)CC1 (stereo not drawn) | inactive: 0.48% |
| CSc1ccc(C(=O)NCC2(N3CCOCC3)CCCCC2)cc1 | active: 5.54% |
| O=C(NCC1(N2CCCCC2)CCCCC1)c1cccc([N+](=O)[O-])c1 | inactive: 2.39% |
| CC(C)(C)n1nnnc1C(c1ccccc1OC(F)(F)F)N1CCC(n2c(=O)[nH]c3ccccc32)CC1 (stereo not drawn) | inactive: 0.96% |
| O=C(NCC1(N2CCCCC2)CCCCC1)c1ccc(OC(F)F)cc1 | inactive: 2.19% |
| O=C(NCC1(N2CCOCC2)CCCCC1)c1cc(=O)[nH]c2ccccc12 | inactive: 0.24% |
| COc1cc(C(=O)NCC2(N3CCCCC3)CCCCC2)ccc1OC(F)F | inactive: 0.88% |
| CCCCn1nnnc1C(c1cccc2ccccc12)N1CCC(n2c(=O)[nH]c3ccccc32)CC1 (stereo not drawn) | inactive: -4.4% |
| CC(C)c1ccc(C(=O)NCC2(N3CCOCC3)CCCCC2)cc1 | inactive: 3.13% |
| COc1ccc(NC2CCN(C(=O)OC(C)(C)C)CC2)cc1 | inactive: 0.33% |
| CN1CCN(CCOC(=O)C(O)(c2ccccc2)c2ccccc2)CC1 | inactive: 0.56% |
| O=C(NCC1(N2CCCCC2)CCCCC1)c1cccc(C(F)(F)F)c1 | inactive: 0.73% |

Source: PubChem BioAssay AID652010 (The Scripps Research Institute Molecular Screening Center, 2013)
